Experimental findings from article PMC5500279, “High-throughput electrophysiological assays for voltage gated ion channels using SyncroPatch 768PE” (PLoS ONE, 2017) are described below.

Protein sequences, listed by entry. Tags and fused reporters are not part of them.
UniProt Q15858, whole entry: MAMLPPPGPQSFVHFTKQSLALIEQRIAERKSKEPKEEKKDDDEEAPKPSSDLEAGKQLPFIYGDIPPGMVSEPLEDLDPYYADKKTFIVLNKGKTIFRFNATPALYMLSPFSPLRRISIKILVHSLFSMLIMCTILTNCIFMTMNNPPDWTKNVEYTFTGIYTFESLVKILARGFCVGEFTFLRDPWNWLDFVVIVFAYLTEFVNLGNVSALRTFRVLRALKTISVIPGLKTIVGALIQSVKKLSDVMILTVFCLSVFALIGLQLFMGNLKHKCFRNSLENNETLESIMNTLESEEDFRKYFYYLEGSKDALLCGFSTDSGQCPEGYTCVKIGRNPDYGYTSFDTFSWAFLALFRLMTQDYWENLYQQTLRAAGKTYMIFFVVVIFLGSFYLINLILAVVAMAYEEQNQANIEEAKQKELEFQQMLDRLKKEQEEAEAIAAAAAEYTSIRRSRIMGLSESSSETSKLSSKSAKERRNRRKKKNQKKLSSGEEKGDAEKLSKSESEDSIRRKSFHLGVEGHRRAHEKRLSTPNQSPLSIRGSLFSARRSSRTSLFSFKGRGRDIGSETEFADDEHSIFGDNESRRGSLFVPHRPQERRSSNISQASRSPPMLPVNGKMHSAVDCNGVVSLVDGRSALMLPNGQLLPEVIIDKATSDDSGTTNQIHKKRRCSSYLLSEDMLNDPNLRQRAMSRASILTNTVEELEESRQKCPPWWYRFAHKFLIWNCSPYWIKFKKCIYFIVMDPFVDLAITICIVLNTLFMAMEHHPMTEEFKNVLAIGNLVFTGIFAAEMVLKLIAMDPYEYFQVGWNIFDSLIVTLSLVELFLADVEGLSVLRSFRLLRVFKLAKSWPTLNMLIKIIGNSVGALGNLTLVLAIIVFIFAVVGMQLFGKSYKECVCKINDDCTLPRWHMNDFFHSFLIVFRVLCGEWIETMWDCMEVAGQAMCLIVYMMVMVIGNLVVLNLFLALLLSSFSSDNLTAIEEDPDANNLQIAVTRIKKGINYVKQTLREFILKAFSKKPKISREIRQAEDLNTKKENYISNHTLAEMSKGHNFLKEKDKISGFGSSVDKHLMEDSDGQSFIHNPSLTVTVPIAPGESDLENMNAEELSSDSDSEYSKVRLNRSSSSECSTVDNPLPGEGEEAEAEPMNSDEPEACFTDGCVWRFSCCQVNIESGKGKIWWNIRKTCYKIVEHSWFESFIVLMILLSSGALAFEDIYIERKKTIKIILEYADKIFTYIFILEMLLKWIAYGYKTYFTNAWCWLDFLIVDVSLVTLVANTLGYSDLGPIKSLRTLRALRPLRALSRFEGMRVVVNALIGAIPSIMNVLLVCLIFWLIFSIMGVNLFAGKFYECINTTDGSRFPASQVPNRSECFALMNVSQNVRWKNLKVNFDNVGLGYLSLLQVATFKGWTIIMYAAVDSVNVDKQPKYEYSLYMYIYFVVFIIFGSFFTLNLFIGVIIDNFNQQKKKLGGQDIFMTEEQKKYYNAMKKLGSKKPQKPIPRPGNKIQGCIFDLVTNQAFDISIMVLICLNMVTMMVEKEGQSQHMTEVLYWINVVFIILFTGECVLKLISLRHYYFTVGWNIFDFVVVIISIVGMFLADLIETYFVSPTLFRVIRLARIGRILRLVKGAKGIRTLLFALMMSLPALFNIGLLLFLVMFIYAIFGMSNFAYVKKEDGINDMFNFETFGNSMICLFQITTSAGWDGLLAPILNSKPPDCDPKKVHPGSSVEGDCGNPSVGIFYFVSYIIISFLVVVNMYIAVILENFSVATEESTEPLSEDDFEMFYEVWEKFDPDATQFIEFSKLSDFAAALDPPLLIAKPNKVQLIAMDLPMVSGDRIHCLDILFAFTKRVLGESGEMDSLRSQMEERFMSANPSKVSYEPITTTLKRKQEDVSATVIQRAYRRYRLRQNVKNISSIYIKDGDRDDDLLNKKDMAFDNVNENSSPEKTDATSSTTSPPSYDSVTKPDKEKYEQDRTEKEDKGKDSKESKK

pIC50: −log10 of the molar value. Read-outs that look alike come from different tables or passages of the source.

The target of this test is human Nav1.7 (Homo sapiens, UniProt Q15858). The test can be described thus: SyncroPatch 768PE automated patch clamp, two-state voltage protocol, CHO-Nav1.7 cells. Conditions: closed state (-120 mV). In general terms: The patch-clamp technique gives a direct electrical read-out from membranes.
[1] abbreviates: IC50 Single Dose Closed State, single concentration per well method.
The mark [2] stands for this setting: IC50 Six Dose Closed State, multiple (six) concentrations per well method.

As usually defined, the pIC50 is −log10 of the IC50, conventionally taken in molar units. Consider `O=C(NCC1CCCCN1)c1cc(OCC(F)(F)F)ccc1OCC(F)(F)F` (stereo not drawn) [Flecainide], for which the pIC50 by setting is: under setting [1], 5.17; under setting [2], 5.07.
As to `CCN1CC(n2nccc2-c2cc(C(F)(F)F)ccc2Oc2ccc(S(=O)(=O)Nc3ncns3)cc2C#N)C1` [GX-936], the pIC50 by setting is: (read-out: IC50 Single Dose Closed State, single concentration per well method) 8.15; (read-out: IC50 Six Dose Closed State, multiple (six) concentrations per well method) 8.29.
Turning to `Nc1nnc(-c2cccc(Cl)c2Cl)c(N)n1` [Lamotrigine], the pIC50 reads like this: under setting [1], 3.51; under setting [2], 3.61.
